# Reference: PubChem BioAssay AID588675 (Johns Hopkins Ion Channel Center, 2011)
# By UniProt entry, the sequences of proteins in these tests, tags left out.
# UniProt Q96LB2, whole entry: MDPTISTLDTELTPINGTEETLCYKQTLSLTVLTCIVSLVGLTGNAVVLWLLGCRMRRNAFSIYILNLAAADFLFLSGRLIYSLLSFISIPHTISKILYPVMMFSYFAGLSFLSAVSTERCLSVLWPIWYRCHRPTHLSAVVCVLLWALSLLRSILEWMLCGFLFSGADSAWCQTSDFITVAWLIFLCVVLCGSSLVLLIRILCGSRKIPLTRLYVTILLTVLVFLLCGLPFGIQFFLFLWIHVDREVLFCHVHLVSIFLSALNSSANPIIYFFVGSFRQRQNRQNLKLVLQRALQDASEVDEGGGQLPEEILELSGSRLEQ
# The entries are a selection whose mix differs from that of the whole data set. Some structures show a salt or complex split into parts, the way the source records it. Calls of active or inactive are those of the source.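 How the source made its calls: active means plate-corrected calcium response at least 3 library SD above typical, normal starting fluorescence, not activating the receptor alone; inactive means the rest.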
# Target: Mas-related G-protein coupled receptor member X1 (Homo sapiens) (UniProt Q96LB2)
# Test: allosteric enhancers of human MrgX1 signaling – HEK293 cells, Fluo-4 calcium flux, primary screen (AID 588675);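 further: compound read alongside a low EC10 to EC30 dose of BAM8-22 agonist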;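 on B-score: peak minus trough fluorescence over baseline measured at the second addition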
# Details: MrgX1-HEK293, Fluo-4 calcium flux, FDSS, at 10 µM; active compounds read high
SMILES,outcome,B-score
Cc1cc(SC(NC(=O)c2ccc(F)cc2)C(Cl)(Cl)Cl)ncn1 (configuration not stated),inactive,–
CCOP(=O)(Nc1ccccc1)OCC,inactive,–
COc1ccccc1OP(C)(=O)Nc1ccc(C)c(C)c1 (configuration not stated),inactive,–
CN(C(=O)Cc1ccc(Cl)c(Cl)c1)[C@H]1CCCC[C@@H]1N1CCCC1,inactive,–
Cc1ccc(NP(=O)(Oc2ccccc2F)Oc2ccccc2F)nc1,inactive,–
COc1ccc(OP(C)(=O)Nc2ccccc2Br)cc1 (configuration not stated),inactive,–
CC(=O)Nc1ccc([As](=O)(O)O)cc1,inactive,–
O=C(O)c1ccccc1[As](=O)(O)O,inactive,–
O=P(Nc1nc2ccc(Cl)cc2s1)(c1ccccc1)c1ccccc1,inactive,–
Cc1cc(C)cc(OP(C)(=O)Nc2cccc(C(F)(F)F)c2)c1 (configuration not stated),inactive,–
O=[N+]([O-])c1cccc(NC2=NCC(CBr)S2)c1 (configuration not stated),inactive,–
O=C(O)CNc1ccc([As](=O)(O)O)cc1,inactive,–
CC(C)(C)C(=O)NC(Sc1ccncn1)C(Cl)(Cl)Cl (configuration not stated),inactive,–
O=[N+]([O-])c1ncn(CCn2ncnc2[N+](=O)[O-])n1,inactive,–
CCOC(=O)c1ccc(NP(C)(=O)Oc2ccc(Cl)cc2)cc1 (configuration not stated),inactive,–
O=C(Nc1cc([As](=O)(O)O)ccc1O)c1ccccc1,inactive,–
CP(=O)(OC12CC3CC(CC(C3)C1)C2)OC12CC3CC(CC(C3)C1)C2,–,active: 6.61
Nc1ccc2c(ccc3cccnc32)n1.O=[N+]([O-])c1cc([N+](=O)[O-])c(O)c([N+](=O)[O-])c1,inactive,–
CC(C)=N/N=C(\N)N[N+](=O)[O-],inactive,–
CN(C)C(=O)c1c([N+](=O)[O-])cc([N+](=O)[O-])cc1[N+](=O)[O-],inactive,–
CC1CCN(C(=O)Oc2c(Cl)cc(Cl)c3cccnc23)CC1,inactive,–
COc1ccccc1OP(C)(=O)Nc1ccccc1Br (configuration not stated),inactive,–
Nc1ccc([As](=O)(O)c2ccc(N)cc2)cc1,inactive,–

SMILES,outcome,B-score
CC(C)(C)c1ccc(OP(C)(=O)O)cc1,inactive,–
C[N+]1=C2C=CC=CC=C2SC12C([N+](=O)[O-])=CC([N+](=O)[O-])=C[C-]2[N+](=O)[O-] (configuration not stated),inactive,–
CCN(/C(=N/P(=O)(N1CCOCC1)N1CCOCC1)N1CCOCC1)c1ccc(OC)cc1,inactive,–
CP(=O)(Nc1ccc(Cl)cc1)Oc1ccc(F)cc1 (configuration not stated),inactive,–
CC(=O)N1C2C3N(C(C)=O)C1C1N(C(C)=O)C(C(N1C(C)=O)N3C(C)=O)N2C(C)=O,inactive,–
O=[N+]([O-])c1cccc2n[nH]nc12,inactive,–
COc1ccccc1OP(C)(=O)Nc1c(C)n(C)n(-c2ccccc2)c1=O (configuration not stated),inactive,–
O=C(OCCCN1CCCC1)C(O)(c1ccccc1)C1CCCCC1 (configuration not stated),inactive,–
Cc1ccc(NP(=O)(Oc2ccccc2)Oc2ccccc2)nc1,inactive,–
CP(=O)(Oc1ccccc1)N1CCOC1=O (configuration not stated),inactive,–
CCc1ccc(OP(C)(=O)Nc2cccnc2)cc1 (configuration not stated),inactive,–
O=[N+]([O-])c1cc([N+](=O)[O-])c(CCNc2ccccc2)c([N+](=O)[O-])c1,inactive,–
CCN(CC)CC(O)COC(=O)C(O)(c1ccccc1)C1CCCCC1 (configuration not stated),inactive,–
COc1ccc(C2=NCC(CBr)S2)cc1 (configuration not stated),inactive,–
COc1ccc(OP(C)(=O)Nc2ccc(Br)cc2)cc1 (configuration not stated),inactive,–
Cc1ccccc1NP(C)(=O)Nc1ccccc1C,inactive,–
CP(=O)(Nc1ccc2c(c1)OCCO2)Oc1ccccc1 (configuration not stated),inactive,–
CCOP(C)(=S)SCC(=O)NC(C)(CC)C(=O)O (configuration not stated),inactive,–
c1nnnn1CCn1cnnn1,inactive,–
CP(=O)(Nc1ccc(SC(F)(F)F)cc1)Oc1ccc(F)cc1 (configuration not stated),inactive,–
O=P(Nc1nccs1)(c1ccccc1)c1ccccc1,inactive,–
CC(C)C(=O)NC(Sc1ccccc1)C(Cl)(Cl)Cl (configuration not stated),inactive,–
C(Cc1nn[nH]n1)Cc1nn[nH]n1,inactive,–

SMILES,outcome,B-score
Nc1ccc([As](=O)(O)c2ccc([N+](=O)[O-])cc2)cc1,inactive,–
O=C(OC1CN2CCC1CC2)c1cccc(Cl)c1 (configuration not stated),inactive,–
O=[N+]([O-])c1ncn(CCn2cnc([N+](=O)[O-])n2)n1,inactive,–
O=[N+]([O-])c1ccc(OP2(=O)COCCO2)cc1 (configuration not stated),inactive,–
CC(=O)NC(SC(=S)N(C)C)C(Cl)(Cl)Cl (configuration not stated),inactive,–
O=[N+]([O-])c1ccc(O)c(/C=N/Nc2ccc([N+](=O)[O-])cc2[N+](=O)[O-])c1,inactive,–
O=[As](O)(c1ccccc1)c1ccc(O)cc1,inactive,–
O=[N+]([O-])c1cc([N+](=O)[O-])c(NCC2CCS(=O)(=O)C2)c([N+](=O)[O-])c1 (configuration not stated),inactive,–
O=P(Nc1nc2ccccc2s1)(c1ccccc1)c1ccccc1,inactive,–
CN(C)CCOC(=O)C(O)(c1ccccc1)C1CCCCC1 (configuration not stated),inactive,–
C[C@H]1OP(=O)(Oc2ccccc2)[C@H](O)[C@H](O)[C@H]1N=[N+]=[N-] (some centres not stated),inactive,–
COc1ccc(NP(C)(=O)Oc2ccccc2OC)cc1 (configuration not stated),inactive,–
COc1ccc(OP(C)(=O)Nc2cccc(Br)c2)cc1 (configuration not stated),inactive,–
CN(C)C1(CNC(=O)c2ccc(Cl)c(S(N)(=O)=O)c2)CCCCC1,inactive,–
O=P(Nc1ccccn1)(c1ccc(Br)cc1)c1ccc(Br)cc1,inactive,–
CP(=O)(Nc1ccccc1)Oc1ccc(F)cc1 (configuration not stated),inactive,–
Cc1ccccc1OP(=O)(Nc1ccccn1)Oc1ccccc1C,inactive,–
O=[N+]([O-])c1cc([N+](=O)[O-])c(OC2CCCCC2O)c([N+](=O)[O-])c1 (configuration not stated),inactive,–
CCCCCOc1ccc(NP(C)(=O)Oc2ccc(Cl)cc2Cl)cc1 (configuration not stated),inactive,–
CN(C)C(=O)Oc1noc2ccccc12,inactive,–
COC(=O)c1cc2c(s1)N=C(c1ccccc1)N(C)P2(=O)N1CCOCC1 (configuration not stated),inactive,–
Cc1ccc(OP(=O)(Nc2ccccn2)Oc2ccc(C)cc2)cc1,inactive,–
CC(=O)NC(SC(=S)N(CC(C)C)CC(C)C)C(Cl)(Cl)Cl (configuration not stated),inactive,–

SMILES,outcome,B-score
O=C(OC1CN2CCC1CC2)c1ccccc1 (configuration not stated),inactive,–
CCC(=O)N1C2C3N(C(=O)CC)C1C1N(C(=O)CC)C(C(N1C(=O)CC)N3C(=O)CC)N2C(=O)CC,inactive,–
CCN(CC)CCCOC(=O)C(O)(c1ccccc1)C1CCCCC1 (configuration not stated),inactive,–
CCOC(=O)c1ccc(NP(C)(=O)Oc2ccc(F)cc2)cc1 (configuration not stated),inactive,–
COc1ccc(OP(C)(=O)Nc2ccc(SC(F)(F)F)cc2)cc1 (configuration not stated),inactive,–
O=C(NC1CCS(=O)(=O)C1)NP(=S)(Oc1ccccc1)Oc1ccccc1 (configuration not stated),inactive,–
CCNC(=S)/N=C(\N)N[N+](=O)[O-],inactive,–
c1ccc(-c2nn[nH]n2)c(-c2nn[nH]n2)c1,inactive,–
CCOC(=O)NC(Sc1ccccc1)C(Cl)(Cl)Cl (configuration not stated),inactive,–
Cc1ccc(NP(=O)(Oc2cccc(C)c2)Oc2cccc(C)c2)nc1,inactive,–
CC(=O)Nc1ccc([As](=O)(O)O)c(O)c1,inactive,–
COc1ccc2c(c1O)-c1c(O)c(OC)cc3c1[C@H](C2)[N+](C)(C)CC3.O=[N+]([O-])c1cc([N+](=O)[O-])c([O-])c([N+](=O)[O-])c1[O-],inactive,–
CC(=O)Nc1ccc(Oc2c([N+](=O)[O-])cc([N+](=O)[O-])cc2[N+](=O)[O-])cc1,inactive,–
CC(=O)c1ccc(N2CC2c2ccncc2)cc1 (configuration not stated),inactive,–
O=C(OC1CN2CCC1CC2)c1ccc([N+](=O)[O-])cc1 (configuration not stated),inactive,–
O=C(OCCN1CCN(CCOCc2ccccc2)CC1)C(O)(c1ccccc1)c1ccccc1,inactive,–
C[C@H]1OP(=O)(Oc2ccccc2)C[C@@H]2O[C@@H]21 (some centres not stated),inactive,–
C[C@@H]1C=CCP(=O)(Oc2ccccc2)O1 (some centres not stated),inactive,–
CP(=O)(Nc1ccccc1F)Oc1ccccc1 (configuration not stated),inactive,–
CC(C)(C)C(=O)NC(Sc1ccccc1)C(Cl)(Cl)Cl (configuration not stated),inactive,–
CC(C)c1ccc(OP(C)(=O)Nc2ccc(SC(F)(F)F)cc2)cc1 (configuration not stated),inactive,–
O=P1(Nc2nc3ccc(Cl)cc3s2)COc2ccccc2O1 (configuration not stated),inactive,–
CCOc1ccc(C2=NCC(CBr)S2)cc1 (configuration not stated),inactive,–
